ChEMBL document CHEMBL3871286, “Tetrahydroquinoline-based tricyclic amines as potent and selective agonists of the 5-HT2C receptor” (Bioorg Med Chem Lett, 2016)

By UniProt entry, the sequences of proteins in these tests, tags left out. Where a name states a change or a piece, a line headed by the entry shows the natural chain unless it says otherwise.
UniProt P28335: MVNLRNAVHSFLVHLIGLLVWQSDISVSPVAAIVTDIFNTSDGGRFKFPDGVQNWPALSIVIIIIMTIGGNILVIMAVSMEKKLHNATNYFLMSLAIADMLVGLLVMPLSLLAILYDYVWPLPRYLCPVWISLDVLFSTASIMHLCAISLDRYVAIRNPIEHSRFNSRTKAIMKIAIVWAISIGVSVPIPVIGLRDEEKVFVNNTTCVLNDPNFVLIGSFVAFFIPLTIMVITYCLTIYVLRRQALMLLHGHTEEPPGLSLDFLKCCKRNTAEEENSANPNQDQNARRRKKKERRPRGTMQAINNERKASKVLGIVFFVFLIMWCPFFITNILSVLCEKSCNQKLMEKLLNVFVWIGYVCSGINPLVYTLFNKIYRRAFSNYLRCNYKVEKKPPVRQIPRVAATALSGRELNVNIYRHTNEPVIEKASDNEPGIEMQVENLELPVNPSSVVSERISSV
UniProt P41595, whole entry: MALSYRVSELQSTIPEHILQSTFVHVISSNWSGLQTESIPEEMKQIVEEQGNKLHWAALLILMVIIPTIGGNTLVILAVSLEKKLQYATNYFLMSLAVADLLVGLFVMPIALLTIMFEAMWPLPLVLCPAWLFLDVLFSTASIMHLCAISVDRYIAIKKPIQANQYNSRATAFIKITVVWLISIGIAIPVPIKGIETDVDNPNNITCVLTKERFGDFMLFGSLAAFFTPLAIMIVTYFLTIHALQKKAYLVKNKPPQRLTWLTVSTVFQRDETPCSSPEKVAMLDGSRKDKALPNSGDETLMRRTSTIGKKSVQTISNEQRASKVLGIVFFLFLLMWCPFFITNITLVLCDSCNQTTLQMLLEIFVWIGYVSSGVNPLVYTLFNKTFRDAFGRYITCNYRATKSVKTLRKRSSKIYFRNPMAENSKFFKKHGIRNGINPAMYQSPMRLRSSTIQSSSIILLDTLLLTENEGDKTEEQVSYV
UniProt P28223, whole entry: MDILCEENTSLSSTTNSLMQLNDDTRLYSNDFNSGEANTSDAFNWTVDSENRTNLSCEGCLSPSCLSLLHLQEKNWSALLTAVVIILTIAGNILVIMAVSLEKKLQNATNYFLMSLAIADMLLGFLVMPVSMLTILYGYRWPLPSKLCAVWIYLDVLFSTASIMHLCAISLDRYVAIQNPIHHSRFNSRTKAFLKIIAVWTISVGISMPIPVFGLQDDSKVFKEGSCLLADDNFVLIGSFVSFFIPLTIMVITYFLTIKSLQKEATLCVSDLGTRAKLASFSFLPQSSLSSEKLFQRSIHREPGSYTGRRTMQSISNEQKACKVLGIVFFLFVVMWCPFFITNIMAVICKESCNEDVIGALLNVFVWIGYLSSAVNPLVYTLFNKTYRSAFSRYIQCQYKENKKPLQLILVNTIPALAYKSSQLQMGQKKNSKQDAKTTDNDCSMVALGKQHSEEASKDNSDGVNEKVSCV

Legend:
[1] = biological target: T1, 5-hydroxytryptamine receptor 2C (Homo sapiens, UniProt P28335); experiment: Agonist activity at unedited 5-HT2C receptor (unknown origin) expressed in HEK293 cells assessed as [3H]inositol phosphate accumulation after 2 hrs by scintillation counting; format: functional, cell-based
[2] = biological target: T1, 5-hydroxytryptamine receptor 2C; experiment: Displacement of [125I]DOI from recombinant human 5-HT2C receptor expressed in HEK293 cell membranes after 1 hr by scintillation counting
[3] = biological target: 5-hydroxytryptamine receptor 2B (Homo sapiens, UniProt P41595); experiment: Displacement of [125I]DOI from recombinant human 5-HT2B receptor expressed in HEK293 cell membranes after 1 hr by scintillation counting
[4] = biological target: T2, 5-hydroxytryptamine receptor 2A (Homo sapiens, UniProt P28223); experiment: Agonist activity at 5-HT2A receptor (unknown origin) expressed in HEK293 cells assessed as [3H]inositol phosphate accumulation after 2 hrs by scintillation counting; format: cell-based
[5] = biological target: T2, 5-hydroxytryptamine receptor 2A; experiment: Displacement of [125I]DOI from recombinant human 5-HT2A receptor expressed in HEK293 cell membranes after 1 hr by scintillation counting

## Clc1cccc(N2CCNCC2)c1 [CHLOROPHENYLPIPERAZINE]
[1]
  EC50: 12.6 nM
[2]
  Ki: 7.94 nM
[3]
  Ki: 10 nM
[4]
  EC50: 251 nM
[5]
  Ki: 25.1 nM
